Experimental data: publication PMC4222822, “Discovery and Characterization of a Potent and Selective Inhibitor of Aedes aegypti Inward Rectifier Potassium Channels” (PLoS ONE, 2014)
pIC50: −log10 of the molar value.

By UniProt entry, the sequences of proteins in these tests, tags left out. Residues count along the entry.
UniProt L0EQS9, 1-486: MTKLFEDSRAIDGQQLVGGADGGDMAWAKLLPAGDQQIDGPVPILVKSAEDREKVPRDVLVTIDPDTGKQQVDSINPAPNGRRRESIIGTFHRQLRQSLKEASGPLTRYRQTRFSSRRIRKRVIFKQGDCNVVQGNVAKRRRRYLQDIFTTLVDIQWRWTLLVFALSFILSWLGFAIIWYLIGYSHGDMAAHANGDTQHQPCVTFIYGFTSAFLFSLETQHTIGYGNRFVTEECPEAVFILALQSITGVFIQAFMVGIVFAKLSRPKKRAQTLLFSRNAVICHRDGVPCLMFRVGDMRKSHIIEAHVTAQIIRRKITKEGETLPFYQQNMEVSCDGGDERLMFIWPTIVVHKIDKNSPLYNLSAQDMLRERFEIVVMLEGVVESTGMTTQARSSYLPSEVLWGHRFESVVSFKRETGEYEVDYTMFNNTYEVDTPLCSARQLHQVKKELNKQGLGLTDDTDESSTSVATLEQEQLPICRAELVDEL

Target: AeKir1 (Aedes aegypti, UniProt L0EQS9)
Assay: Tl+ flux assay in T-REx-HEK293-AeKir1 cells
Format: cell-based
Settings: Table S3, left-hand sulfonamide SAR; 11-point CRCs on AeKir1 in Tl+ flux, triplicate on two separate days
Protocol: Tl^+ flux assays were performed essentially as described previously, [18], [19]. Briefly, stably transfected T-Rex-HEK-293 cells expressing AeKir1 channels were cultured overnight in 384-well plates (20,000 cells/20 µL/well black-walled, clear-bottomed BD PureCoat amine-coated plates (BD, Bedford, MA) with a plating media containing DMEM, 10% dialyzed FBS and 1 µg/mL tetracycline. The next day, the cell culture medium was replaced with a dye-loading solution containing assay buffer (Hanks Balanced Salt Solution with 20 mM HEPES, pH 7.3), 0.01% (w/v) Pluronic F-127 (Life Technologies, Carlsbad, CA), and 1.2 µM of the thallium-sensitive dye Thallos-AM (TEFlabs, Austin, TX). Following 1 hr incubation at room temperature, the dye-loading solution was washed from the plates and replaced with 20 µL/well of assay buffer. The plates were transferred to a Hamamatsu Functional Drug Screening System 6000 (FDSS6000; Hamamatsu, Hamamatsu (or Bridgewater, NJ), Japan) where 20 µL/well of test compounds in assay buffer (as prepared below) were added and allowed to incubate with the cells for 20 min. After the incubation period, a baseline recording was collected at 1 Hz for 10 s (excitation 470±20 nm, emission 540±30 nm) followed by a Tl^+ stimulus buffer addition (10 µL/well) and data collection for an additional 4 min. The Tl^+ stimulus buffer contains in (mM) 125 NaHCO3, 1.8 CaSO4, 1 MgSO4, 5 glucose, 12 Tl2SO4, 10 HEPES, pH 7.4. For Tl^+ flux assays on the mammalian channels Kir2.x, Kir4.1 and Kir6.2/SUR1 expressing cells, the Tl^+ stimulus buffer contained 1.8 mM Tl2SO4. Also, Tl^+ flux assays on Kir3.1/3.2/mGlu8 expressing cell, required addition of an EC80 concentration of glutamate (Sigma-Aldrich, St. Louis, MO) with the Tl^+ stimulus buffer. The test compounds were transferred to daughter polypropylene 384-well plates (Greiner Bio-One, Monroe, NC) using an Echo555 liquid handler (Labcyte, Sunnyvale, CA), and then diluted into assay buffer to generate a 2X stock in 0.6% DMSO (0.3% final). For Tl^+ flux assays on Kir6.2/SUR1 expressing cells, test compounds were diluted in assay buffer containing diazoxide (250 µM final) to induce channel activation. Concentration-response curves (CRCs) were generated by screening compounds at 3-fold dilution series in 4-point (1 µM–30 µM) or 11-point (1 nM–30 µM) CRCs. Tl^+ flux data were analyzed as previously described, [21], [22] using a combination of Excel (Microsoft Corp, Redmond, WA) with XLfit add-in (IDBS, Guildford, Surrey, UK) and OriginPro (OriginLab, Northampton, MA) software. Raw data were opened in Excel and each data point in a given trace was divided by the first data point from that trace (static ratio) followed by subtraction of data points from control traces generated in the presence of vehicle controls. The slope of the fluorescence increase beginning 5 s after Tl^+ addition and ending 15 s after Tl^+ addition was calculated. To compare the effect of DMSO on AeKir1-mediated Tl^+ flux, a one-way ANOVA was performed with a Tukey's multiple comparison test. Prism software (GraphPad Software) was used to generate CRC from Tl^+ flux. Half-inhibition concentration (IC50) values were calculated from fits using a four parameter logistic equation.

Row | Compound | pIC50
1 | CCC(=O)N1CCc2cc(S(=O)(=O)Nc3ccc4c(c3)OC(F)(F)O4)ccc21 | < 4.52
2 | CCC(=O)N1CCc2cc(S(=O)(=O)Nc3ccccc3OC)ccc21 | < 4.52
3 | CCC(=O)N1CCc2cc(S(=O)(=O)Nc3ccc4c(ccn4C)c3)ccc21 | < 4.52
4 | CCC(=O)N1CCc2cc(S(=O)(=O)Nc3ccc(F)c(OC)c3)ccc21 | 5.71
5 | CCC(=O)N1CCc2cc(S(=O)(=O)Nc3cccc(OC(F)(F)C(F)F)c3)ccc21 | < 4.52
6 | CCC(=O)N1c2ccc(S(=O)(=O)N(C)c3ccc(Br)cc3)cc2CC1C (stereo not shown) | 5.67
7 | CCC(=O)N1CCc2cc(S(=O)(=O)Nc3cccc(OCCOC)c3)ccc21 | < 4.52
8 | CCC(=O)N1CCc2cc(S(=O)(=O)Nc3cc(OC)cc(OC)c3)ccc21 | < 4.52
9 | CCC(=O)N1CCc2cc(S(=O)(=O)Nc3cccc(Oc4ccccc4)c3)ccc21 | < 4.52
10 | CCOc1cccc(NS(=O)(=O)c2ccc3c(c2)CCN3C(=O)CC)c1 | 5.46
11 | CCC(=O)N1CCc2cc(S(=O)(=O)Nc3ccc(OC)c(OC)c3)ccc21 | < 4.52
12 | CCC(=O)N1CCc2cc(S(=O)(=O)Nc3cccc(C(F)(F)F)c3)ccc21 | < 4.52
13 | CCC(=O)N1CCc2cc(S(=O)(=O)NC3CCOC3)ccc21 (stereo not shown) | < 4.52
14 | CCOc1ccc(NS(=O)(=O)c2ccc3c(c2)CCN3C(=O)CC)cc1 | < 4.52
15 | CCC(=O)N1CCc2cc(S(=O)(=O)Nc3cccc(OC(F)F)c3)ccc21 | < 4.52
16 | CCC(=O)N1c2ccc(S(=O)(=O)Nc3ccc(Br)cc3)cc2CC1C (stereo not shown) | 5.63
17 | CCC(=O)N1CCc2cc(S(=O)(=O)Nc3cccc(Oc4ccccn4)c3)ccc21 | 5.85
18 | CCC(=O)N1CCc2cc(S(=O)(=O)Nc3cccc(OC(F)(F)F)c3)ccc21 | < 4.52
19 | CCC(=O)N1CCc2cc(S(=O)(=O)Nc3cccc(OC)c3OC)ccc21 | < 4.52
20 | CCC(=O)N1CCc2cc(S(=O)(=O)Nc3cccc(S(C)(=O)=O)c3)ccc21 | < 4.52
21 | CCC(=O)N1CCc2cc(S(=O)(=O)Nc3ccc4c(c3)OCO4)ccc21 | < 4.52
22 | CCC(=O)N1CCc2cc(S(=O)(=O)Nc3ccc(F)c(C(C)=O)c3)ccc21 | < 4.52
